Source: patent US9617266B2, “Imidazopyrimidine derivatives” (Merck Patent GmbH, priority 2013, dated 2017)

Sequences of proteins named here, by UniProt entry; tags and fusion partners are left off.
UniProt Q9P2K8, whole entry, species assumed: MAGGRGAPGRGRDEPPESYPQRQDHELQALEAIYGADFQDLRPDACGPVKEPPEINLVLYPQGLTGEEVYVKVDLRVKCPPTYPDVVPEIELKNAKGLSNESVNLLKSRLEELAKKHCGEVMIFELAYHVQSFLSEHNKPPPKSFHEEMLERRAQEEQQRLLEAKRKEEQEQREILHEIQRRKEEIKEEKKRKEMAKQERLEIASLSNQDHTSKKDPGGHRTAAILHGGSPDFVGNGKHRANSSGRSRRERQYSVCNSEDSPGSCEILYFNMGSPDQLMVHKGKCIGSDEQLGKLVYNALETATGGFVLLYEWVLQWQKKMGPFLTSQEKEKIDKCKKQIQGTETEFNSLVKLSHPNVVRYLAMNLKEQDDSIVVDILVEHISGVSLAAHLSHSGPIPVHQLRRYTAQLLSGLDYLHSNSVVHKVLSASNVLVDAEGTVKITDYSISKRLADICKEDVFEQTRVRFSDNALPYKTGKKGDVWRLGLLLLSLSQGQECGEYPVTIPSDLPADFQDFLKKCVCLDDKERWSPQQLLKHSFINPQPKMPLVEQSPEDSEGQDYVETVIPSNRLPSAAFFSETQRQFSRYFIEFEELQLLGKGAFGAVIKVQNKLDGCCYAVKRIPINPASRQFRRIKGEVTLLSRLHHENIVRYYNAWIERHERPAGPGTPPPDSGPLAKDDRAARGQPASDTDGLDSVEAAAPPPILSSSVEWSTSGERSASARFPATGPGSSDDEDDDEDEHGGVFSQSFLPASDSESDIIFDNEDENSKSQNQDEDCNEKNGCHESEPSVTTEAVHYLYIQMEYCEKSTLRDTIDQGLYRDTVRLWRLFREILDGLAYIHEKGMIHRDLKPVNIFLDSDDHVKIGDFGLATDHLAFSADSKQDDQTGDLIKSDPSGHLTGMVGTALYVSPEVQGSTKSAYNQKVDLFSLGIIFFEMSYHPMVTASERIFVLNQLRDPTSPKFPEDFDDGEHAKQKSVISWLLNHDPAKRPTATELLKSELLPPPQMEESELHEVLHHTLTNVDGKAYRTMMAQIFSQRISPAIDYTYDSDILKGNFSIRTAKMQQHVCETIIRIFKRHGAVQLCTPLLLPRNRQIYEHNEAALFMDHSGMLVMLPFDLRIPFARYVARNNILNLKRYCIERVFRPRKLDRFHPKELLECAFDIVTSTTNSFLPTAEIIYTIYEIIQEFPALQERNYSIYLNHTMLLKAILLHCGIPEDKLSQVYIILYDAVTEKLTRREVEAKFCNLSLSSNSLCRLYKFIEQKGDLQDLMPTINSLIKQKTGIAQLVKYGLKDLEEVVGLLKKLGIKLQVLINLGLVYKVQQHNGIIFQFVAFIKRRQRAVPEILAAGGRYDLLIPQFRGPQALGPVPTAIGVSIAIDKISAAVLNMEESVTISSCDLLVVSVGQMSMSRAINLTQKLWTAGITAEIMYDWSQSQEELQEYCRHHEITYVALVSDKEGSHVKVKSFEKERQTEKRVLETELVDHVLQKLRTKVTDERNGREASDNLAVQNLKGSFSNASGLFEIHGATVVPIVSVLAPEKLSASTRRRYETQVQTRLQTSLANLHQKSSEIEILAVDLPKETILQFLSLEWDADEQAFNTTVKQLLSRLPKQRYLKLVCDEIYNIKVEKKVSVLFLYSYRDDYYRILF

molecular target: GCN2 (Homo sapiens, UniProt Q9P2K8); experiment: GCN2 enzyme assay (TR-FRET Lanthascreen, GFP-eIF2alpha phosphorylation); assay type: biochemical; conditions: 10 μM ATP, 80 nM GFP-eIF2a substrate, 30 nM GCN2, room temperature
Description: GCN2: Assay Principle & Conditions
This assay can quantificate the activity of the serin kinase GCN2 (general control non-derepressible-2).
This kinase is involved in the stress metabolism of cells. It is activated upon starvation (amino acid depletion). Its natural substrate is eIF2a (eukaryotic initiation factor 2 alpha subunit), a translation factor, which gets activated (phosphorylated) by GCN2 in case of an amino acid bottleneck in the cells. This in turn leads to a halt of the protein synthesis. Inhibition of GCN2 results in stopping this mechanism: The cell can not stop protein production upon “starvation” stress.
The assay is run in two steps: the enzymatic reaction and the detection step. In the first step GCN2 is incubated with 10 μM ATP and 80 nM of the GFP-labelled substrate elF2alpha at room temperature.
The enzymatic reaction is stopped by addition of EDTA. The amount of phosphorylated elF2alpha is determined by TR-FRET (Lanthascreen): A complex is formed consisting of antibody and GFP labelled phospho-eIF2a, which allows a FRET upon exitation at 340 nm.
Final Concentrations in the Enzymatic Reaction

Row | SMILES | IC50 [µM]
1 | CCOc1ccc(-n2c(N)nc3cnc(Nc4cnn(C5CCN(C)CC5)c4)nc32)cc1 [Compound A7, 9-(4-ethoxyphenyl)-N2-(1-(1-methylpiperidin-4-yl)-1H-pyrazol-4-yl)-9H-purine-2,8-diamine] | < 1
2 | CCn1cc(Nc2ncc3nc(N)n(-c4cnn(CC)c4)c3n2)cn1 [Compound A8, N^2,9-bis(1-ethyl-1H-pyrazol-4-yl)-9H-purine-2,8-diamine] | 5 to 10
3 | CCOc1ccc(-n2c(N)nc3cnc(Nc4cnn(CCn5cccn5)c4)nc32)cc1 [Compound A14, 9-(4-ethoxy-phenyl)-N^2-[1-(2-pyrazol-1-yl-ethyl)-1H-pyrazol-4-yl]-9H-purine-2,8-diamine] | 5 to 10
